Laboratory results reported in patent US8067461B2, “3-acyl coumarins, thiochromones and quinolones and therapeutic uses thereof” (Temple University-Of The Commonwealth System of Higher …, priority 2005, dated 2011).

The chains behind the UniProt entries cited, without tags or fusion partners. Where a name states a change or a piece, a line headed by the entry shows the natural chain unless it says otherwise.
UniProt P11802: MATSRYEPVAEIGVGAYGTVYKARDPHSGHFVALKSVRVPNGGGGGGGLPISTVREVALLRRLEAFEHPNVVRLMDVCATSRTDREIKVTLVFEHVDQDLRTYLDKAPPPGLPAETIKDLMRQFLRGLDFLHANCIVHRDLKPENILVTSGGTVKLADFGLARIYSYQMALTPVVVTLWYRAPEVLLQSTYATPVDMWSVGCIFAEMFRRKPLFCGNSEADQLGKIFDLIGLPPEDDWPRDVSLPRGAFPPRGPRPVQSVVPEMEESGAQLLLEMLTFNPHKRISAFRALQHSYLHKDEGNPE

Biological target: CDK4/CyclinD1 (Homo sapiens, UniProt P11802)
Assay: In vitro kinase assay CDK4/CyclinD1, 32P incorporation into GST-Rb
Details: read-out: CDK4 IC50; recombinant human enzyme complex, average of two independent experiments in triplicate

## O=C(c1cc2cc([N+](=O)[O-])cc([N+](=O)[O-])c2oc1=O)c1cc2cc([N+](=O)[O-])cc([N+](=O)[O-])c2oc1=O
  IC50: > 10 µM
